Experimental data reported in ChEMBL document CHEMBL4732187, “Tetrahydroindazole inhibitors of CDK2/cyclin complexes” (Eur J Med Chem, 2021).

Tests used:
[1] = Apparent permeability across apical to basolateral side in MDCK cells at 1 uM after 2 hrs by LC-MS/MS analysis; format: ADME, cell-based, Canis lupus familiaris; details: dog
Summary of the method: (§1)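 MDCK monolayers were washed twice with pre-warmed HBSS (10 mM HEPES, pH 7.4) and equilibrated for 30 min at 37 °C. Compound at 1 μM in HBSS (0.5% DMSO final) was added to the apical or the basolateral donor side. After 2 h at 37 °C, donor and receiver samples were quenched in cold methanol with internal standards and analysed by LC-MS/MS. Runs were in duplicate; 100 μM Lucifer Yellow checked monolayer integrity.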

[2] = Apparent permeability across basolateral to apical side in MDCK cells at 1 uM after 2 hrs by LC-MS/MS analysis; format: ADME, cell-based, Canis lupus familiaris; details: dog; summary of the method: as §1

Question: With C[C@H]1O[C@@H](O[C@H]2[C@@H](O)C[C@H](O[C@H]3[C@@H](O)C[C@H](O[C@H]4CC[C@@]5(C)[C@H](CC[C@@H]6[C@@H]5C[C@@H](O)[C@]5(C)[C@@H](C7=CC(=O)OC7)CC[C@]65O)C4)O[C@@H]3C)O[C@@H]2C)C[C@H](O)[C@@H]1O [DIGOXIN] as the compound, how does the Papp A→B at 2 h, 1 µM [1] read?
Answer: Its Papp A→B at 2 h, 1 µM is 1.08 ×10⁻⁶ cm/s.

Question: And the Papp B→A at 2 h, 1 µM [2]?
Answer: Its Papp B→A at 2 h, 1 µM is 5.41 ×10⁻⁶ cm/s.

Question: With Cc1ccc(NC(=O)c2ccc(CN3CCN(C)CC3)cc2)cc1Nc1nccc(-c2cccnc2)n1 [IMATINIB] as the compound, how does the Papp A→B at 2 h, 1 µM [1] read?
Answer: The Papp A→B at 2 h, 1 µM was 7.69 ×10⁻⁶ cm/s.

Question: What about the Papp B→A at 2 h, 1 µM [2] of the same compound?
Answer: The Papp B→A at 2 h, 1 µM was 6.5 ×10⁻⁶ cm/s.
